Data taken from ChEMBL document CHEMBL3808393, “Discovery of Potent and Selective Agonists of δ Opioid Receptor by Revisiting the "Message-Address" Concept” (ACS Med Chem Lett, 2016).
pEC50, pKi: −log10 of the molar value.

Protein sequences, listed by entry. Tags and fused reporters are not part of them.
UniProt P35372, whole entry: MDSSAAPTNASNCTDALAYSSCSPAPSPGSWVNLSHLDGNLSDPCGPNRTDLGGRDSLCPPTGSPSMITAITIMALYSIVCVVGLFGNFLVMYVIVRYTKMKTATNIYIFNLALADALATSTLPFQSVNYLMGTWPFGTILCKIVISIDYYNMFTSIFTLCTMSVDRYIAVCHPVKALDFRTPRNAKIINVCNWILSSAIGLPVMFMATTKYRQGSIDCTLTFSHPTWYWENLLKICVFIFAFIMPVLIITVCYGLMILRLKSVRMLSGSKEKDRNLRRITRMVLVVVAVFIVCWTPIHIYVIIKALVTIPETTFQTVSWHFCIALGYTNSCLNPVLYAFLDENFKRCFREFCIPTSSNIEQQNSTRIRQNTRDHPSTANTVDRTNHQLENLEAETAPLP

How the values were obtained:
Mu-type opioid receptor [1] = target: T1, Mu-type opioid receptor (Homo sapiens, UniProt P35372); assay: Agonist activity at human MOR expressed in CHO cell membranes after 60 mins by [35S]GTP-gamma-S binding assay
Procedure, shortened: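 [35S]GTP-γ-S binding read-out of G-protein activation. Each compound assayed three times, with values given as mean ± standard error of the mean.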

Mu-type opioid receptor [2] = target: T1, Mu-type opioid receptor; assay: Displacement of [3H]naloxone from human MOR expressed in CHO-K1 cell membranes after 60 mins by microbeta scintillation counting method; format: cell-based
Mu-type opioid receptor [3] = target: T1, Mu-type opioid receptor; assay: Displacement of [3H]DAMGO from human MOR expressed in CHO cell membranes after 60 mins

CN(C)C[C@H]1CCCC[C@]1(O)c1cccc(O)c1 (racemic) [O-DESMETHYL TRAMADOL] showed a pEC50 (Mu-type opioid receptor [1]) of 6.62, a pKi (Mu-type opioid receptor [2]) of 7.96 and a pKi (Mu-type opioid receptor [3]) of 7.89.
